The values that follow come from ChEMBL document CHEMBL4842383 (J Med Chem, 2021).

For assay [1], the species on record is Homo sapiens. In words: Selectivity ratio for IC50 for human wild-type human partial length DDR1 (R565 to V876 residues) to IC50 wild-type human partial length CSF1R (I564 to S939 residues).
Assay [2] is filed under the species Homo sapiens. In words: Selectivity ratio for IC50 for human wild-type human partial length VEGFR2 (R787 to P1253 residues) to IC50 wild-type human partial length CSF1R (I564 to S939 residues).
The species entered for assay [3] is Homo sapiens. Description: Selectivity ratio for IC50 for human wild-type human partial length AURKB (D25 to A303 residues) to IC50 wild-type human partial length CSF1R (I564 to S939 residues).
Assay [4] is filed under the species Homo sapiens. In words: Selectivity ratio for IC50 for human wild-type human partial length PDGFRalpha (V575 to D1002 residues) to IC50 wild-type human partial length CSF1R (I564 to S939 residues).
For assay [5], the species on record is Homo sapiens. In words: Selectivity ratio for IC50 for human wild-type human partial length PDGFRbeta (V582 to Y1009 residues) to IC50 wild-type human partial length CSF1R (I564 to S939 residues).
Assay [6] is filed under the species Homo sapiens. In words: Selectivity ratio for IC50 for human wild-type human full length PAK3 (M1 to R544 residues) to IC50 wild-type human partial length CSF1R (I564 to S939 residues).
Assay [7] is filed under the species Homo sapiens. In words: Selectivity ratio for IC50 for human wild-type human partial length FLT3 (V592 to Y969 residues) to IC50 wild-type human partial length CSF1R (I564 to S939 residues).
The species named for assay [8] is Homo sapiens. In words: Selectivity ratio for IC50 for human c-Kit to IC50 wild-type human partial length CSF1R (I564 to S939 residues).

Consider `CN(C)c1ccc2c(Oc3ccc(NC(=O)NCc4ccc(C(F)(F)F)nc4)cc3)ncnc2c1`, for which the Selectivity ratio in assay [1] was 113; in assay [2], above 15000; in assay [3], 426; in assay [4], 48; in assay [5], 59; in assay [6] it was above 15000. Moreover, the values for the Selectivity ratio in assay [7] and in assay [8] were 121 and 2.1, respectively.
